Results on one molecule are retold here after PMC5683014 (Acta Crystallographica. Section D, Structural Biology, 2017).

The target in this test is T1, hen egg-white lysozyme (Gallus gallus (chicken), UniProt P00698).
T1 construct: C-type hen egg-white lysozyme, chicken, 129 positions; also called HEL; chicken lysozyme; source: bought: Sigma
In words: BLI; BLItz (ForteBio); biotinylated Fab loaded on streptavidin biosensors (rehydrated in PBS with 0.1% BSA); lysozymes passed on and off at a range of concentrations; global fits of kinetics (BlitzPro 1.2.1.3). The conditions noted are these: both partners purified. On the technique in general: BLI is a label-free optical method that tracks binding on a fibre tip over time.

B1: HyHEL5 Fab (Fab, V domains shown)
VH: EVQLQQSGAELMKPGASVKISCKASGYTFSDYWIEWVKQRPGHGLEWIGEILPGSGSTNYHERFKGKATFTADTSSSTAYMQLNSLTSEDSGVYYCLHGNYDFDGWGQGTTLTVSS
VL: DIVLTQSPAIMSASPGEKVTMTCSASSSVNYMYWYQQKSGTSPKRWIYDTSKLASGVPVRFSGSGSGTSYSLTISSMETEDAATYYCQQWGRNPTFGGGTKLEIK
notes: HyHEL5 Fab heavy chain; HyHEL5 kappa light chain; Cloned into pCEP4; also called HyHEL5 Fab arm; source: Expi293, transiently expressed, purified from supernatant (HisTrap FF Crude)
For orientation: Kd means the free concentration of one partner at which half of the binding sites on the other are occupied at equilibrium, for simple one-to-one binding. Read a low Kd as tighter binding. A word on the koff: it is a measure of how fast the partners let go of each other. A low value points to a long-lived complex. The kon is a measure of how fast the partners come together. A higher kon goes with fast association. The molecule B1 returned a Kd of 0.54 nM, a koff of 0.00012 s⁻¹ and a kon of 220000 M⁻¹ s⁻¹.
